Laboratory results from article PMC2917805 (Journal of medicinal chemistry, 2010).

Conditions: NMR solvent D2O

Substance: Resveratrol Tetrabutylammonium 4′-Sulfate [compound 6]
- solubility in D2O: Not soluble in D2O.
